The text below walks through data of PubChem BioAssay AID2291 (The Scripps Research Institute Molecular Screening Center, 2010).

Chains of the proteins cited; added tags and fusions are not shown. Lines headed by an entry give the natural chain unless they say otherwise; changes in a name come on top.
UniProt Q9Y570: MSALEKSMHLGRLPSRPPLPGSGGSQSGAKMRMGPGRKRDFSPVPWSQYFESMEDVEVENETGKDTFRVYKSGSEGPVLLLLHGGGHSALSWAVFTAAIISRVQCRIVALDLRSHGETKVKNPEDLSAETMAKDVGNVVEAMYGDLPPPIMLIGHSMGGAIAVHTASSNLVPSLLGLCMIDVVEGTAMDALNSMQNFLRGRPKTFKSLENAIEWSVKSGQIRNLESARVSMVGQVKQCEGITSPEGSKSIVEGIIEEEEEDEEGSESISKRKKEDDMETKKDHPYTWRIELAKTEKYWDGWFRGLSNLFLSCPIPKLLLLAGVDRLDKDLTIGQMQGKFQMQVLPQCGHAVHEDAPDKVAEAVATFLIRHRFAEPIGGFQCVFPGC

The list shows a part of the results, in another mix than the full data. The source made the active and inactive calls. Rule as the data show it: active = inhibition above about 30%; inactive = the rest.

The target in the experiment is Protein phosphatase methylesterase 1 (Homo sapiens) (UniProt Q9Y570). The experiment in a line: Maybridge compound blocking human PME-1 (AID 2291). Conditions: recombinant PME-1, FP-Rh probe fluorescence polarization; at 9 µM; active compounds read high. (Fluorescence polarisation rises when a labelled molecule tumbles more slowly, as on binding a larger partner.)
As to `O=C(OC1CN2CCC1CC2)c1cccc([N+](=O)[O-])c1` (configuration not stated), the inhibition is inactive: -1.03%.
The figure for `CCOC(=O)/C(=N/Nc1ccc([N+](=O)[O-])cc1)N1CC1` is inactive: 6.59%.

By inhibition is commonly meant the drop in the measured response relative to a control, in per cent.
